The assay deals with T1, β4 integrin, immunopurified (from MDA-MB-231L cells) (human, UniProt P16144).
T1 construct: mature; also called immunopurified β4 integrin; soluble β4
Briefly: ELISA, β4 integrin coated at 15 µg/ml, 1 mm MnCl2. In general terms: An ELISA detects its analyte on a solid surface through an enzyme-linked reagent.

Sequences of proteins named here, by UniProt entry; tags and fusion partners are left off. Residues count along the entry.
UniProt P16144, 28-1822: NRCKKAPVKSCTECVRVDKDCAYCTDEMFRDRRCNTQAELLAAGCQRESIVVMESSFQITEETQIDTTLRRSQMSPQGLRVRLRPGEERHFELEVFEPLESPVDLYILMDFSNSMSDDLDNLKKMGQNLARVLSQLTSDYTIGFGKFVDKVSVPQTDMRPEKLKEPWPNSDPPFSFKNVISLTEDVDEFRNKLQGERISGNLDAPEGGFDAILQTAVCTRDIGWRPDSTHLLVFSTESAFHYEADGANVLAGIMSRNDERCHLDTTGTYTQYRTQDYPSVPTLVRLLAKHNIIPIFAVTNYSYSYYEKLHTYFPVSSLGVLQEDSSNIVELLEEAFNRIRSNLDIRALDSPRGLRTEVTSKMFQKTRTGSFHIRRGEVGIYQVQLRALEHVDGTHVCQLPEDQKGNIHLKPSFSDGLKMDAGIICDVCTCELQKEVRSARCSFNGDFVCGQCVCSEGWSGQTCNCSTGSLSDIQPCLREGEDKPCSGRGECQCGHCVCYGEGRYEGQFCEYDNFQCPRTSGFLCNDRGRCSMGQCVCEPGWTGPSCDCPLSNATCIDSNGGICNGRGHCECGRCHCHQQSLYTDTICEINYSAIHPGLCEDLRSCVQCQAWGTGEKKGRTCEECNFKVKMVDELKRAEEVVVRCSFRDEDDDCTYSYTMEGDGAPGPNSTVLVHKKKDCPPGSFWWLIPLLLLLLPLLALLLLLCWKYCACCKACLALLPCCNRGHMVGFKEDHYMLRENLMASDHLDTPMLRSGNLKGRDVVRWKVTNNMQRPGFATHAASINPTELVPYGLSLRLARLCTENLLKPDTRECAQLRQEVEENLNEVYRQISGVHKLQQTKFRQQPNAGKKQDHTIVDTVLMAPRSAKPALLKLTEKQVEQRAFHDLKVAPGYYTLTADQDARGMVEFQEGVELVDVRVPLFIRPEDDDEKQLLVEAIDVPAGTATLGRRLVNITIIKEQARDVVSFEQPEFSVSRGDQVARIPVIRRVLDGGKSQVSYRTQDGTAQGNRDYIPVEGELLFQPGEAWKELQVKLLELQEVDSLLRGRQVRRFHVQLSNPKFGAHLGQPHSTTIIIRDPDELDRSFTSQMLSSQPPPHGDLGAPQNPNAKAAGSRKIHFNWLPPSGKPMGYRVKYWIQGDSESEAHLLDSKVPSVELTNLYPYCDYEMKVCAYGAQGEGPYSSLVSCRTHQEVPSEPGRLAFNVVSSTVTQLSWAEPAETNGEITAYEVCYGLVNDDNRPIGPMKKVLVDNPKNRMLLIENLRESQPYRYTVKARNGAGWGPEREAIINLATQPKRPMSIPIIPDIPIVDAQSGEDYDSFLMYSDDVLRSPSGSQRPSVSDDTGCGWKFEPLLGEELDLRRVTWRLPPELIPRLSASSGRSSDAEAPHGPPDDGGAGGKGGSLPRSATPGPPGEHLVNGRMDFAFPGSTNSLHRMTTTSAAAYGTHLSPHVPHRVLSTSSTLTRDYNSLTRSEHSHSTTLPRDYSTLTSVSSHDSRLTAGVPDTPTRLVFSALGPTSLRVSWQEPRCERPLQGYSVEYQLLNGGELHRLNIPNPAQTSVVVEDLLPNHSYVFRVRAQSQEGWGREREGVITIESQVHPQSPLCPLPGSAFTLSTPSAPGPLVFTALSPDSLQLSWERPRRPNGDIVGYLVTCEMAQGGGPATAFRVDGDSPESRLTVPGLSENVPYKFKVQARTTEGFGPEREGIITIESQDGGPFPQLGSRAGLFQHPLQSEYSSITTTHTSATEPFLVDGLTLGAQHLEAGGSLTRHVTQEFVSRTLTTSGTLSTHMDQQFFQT

B1: GST (glutathione S-transferase), control (other, UniProt P08515 1-218, looked up)
chain: MSPILGYWKIKGLVQPTRLLLEYLEEKYEEHLYERDEGDKWRNKKFELGLEFPNLPYYIDGDVKLTQSMAIIRYIADKHNMLGGCPKERAEISMLEGAVLDIRYGVSRIAYSKDFETLKVDFLSKLPEMLKMFEDRLCHKTYLNGDHVTHPDFMLYDALDVVLYMDPMCLDAFPKLVCFKKRIEAIPQIDKYLKSSKYIAWPLQGWQATFGGGDHPPK
Take B1: the binding result is “no binding”.

The values above are taken from US20040265859A1 (CORNELL RESEARCH FOUNDATION, published 2004).
